Source: patent publication US20180148514A1, “MULTIVALENT MEDITOPES, MEDITOPE-BINDING ANTIBODIES AND USES THEREOF” (City of Hope, priority 2014, published 2018)

What was measured:
MDA-MB-468 cells = assay: Confocal/fluorescent microscopy of cetuximab with MFC or M4FC; format: cell-based
Experimental: Effects on the endocytic process following incubation with meditope-enabled antibodies alone and with multivalent meditopes were assessed by confocal microscopy. Specifically, the effects a bivalent meditope Fc (MFC) and the tetravalent meditope-Fc described above (M4FC) were assessed by fluorescent microscopy. Alexa Fluor-labeled cetuximab without or in combination with each of these meditopes was co-incubated with MDA-MB-468 cells for 15 minutes, 1 hour and 40 minutes, 3 hours and 35 minutes, and 6 hours and 35 minutes. At the end of the incubation, the cells were fixed by formaldehyde, and where appropriate, Alexa Fluor-labeled antibodies were applied to stain for specific cellular markers before cover slips were mounted and the samples analyzed.

[1] = tested on: HER2-paGFP in MDA-MB-468 cells; assay: PC-PALM super-resolution imaging of HER2-paGFP distribution; format: cell-based; settings: 10 nM trastuzumab, 10 minute incubation, Her2-paGFP transfected MDA-MB-468
Experimental: Cells were plated on clean and coated coverslips. Her2-paGFP was transiently transfected into MDA-MB-453 (3 ug of DNA, Fugine HD transfection reagent, 48 h) and MDA-MB-468 (2 ug DNA, JetPrime transfection reagent, 24 h or 48 h) cells. Cells were incubated with 10 nM trastuzumab for 10 min, washed, fixed as described hereinabove and imaged. PC-PALM was used to define the distribution of Her2.
Cells were assessed at the steady state (without addition of antibody) or following incubation for 10 minutes with trastuzumab which was not meditope-enabled).
In another study, the effects were compared to those observed following incubation with a multivalent meditope in combination with meditope-enabled antibody. The HER2-paGFP was expressed in MDA-468 cells as described above. Cells were incubated with 10 nM meditope-enabled Trastuzumab v2.0 with a heavy chain of SEQ ID NO: 9 and a light chain is the sequence of SEQ ID NO: 6 with 83E at 37° C. for 10 min. Cells were quickly washed once with pre-warmed (37° C.) media and then incubated with fresh 10 nM tetravalent meditope (M4Fc) at 37° C. for two different time points (3 min and 10 min).

Row | Substance | brightness of dots (MDA-MB-468 cells) [lumin/pixel^2] | number of dots (punctates), ImagePro count (MDA-MB-468 cells) [dots] | average HER2 proteins per cluster [1] [proteins per cluster]
1 | cetuximab: monoclonal anti-EGFR antibody with meditope-binding site; Alexa Fluor-labeled in microscopy [reference compound] | 100 | 37 | –
2 | trastuzumab: anti-HER2 antibody, not meditope-enabled [reference compound] | – | – | 6
